Values quoted from earlier work as cited in patent US20240118265A1, “MATERIALS AND METHODS TO IMPROVE IN VITRO TOXICITY PREDICTIONS” (priority 2022, published 2024).
Only a part of the results on these compounds is given; other tests are left out.

Experiments:
eye = settings: GHS category; cited from earlier work
cultured epithelium = settings: without DM test; cited from earlier work

Ammonium nitrate
in vivo GHS (eye): Cat. 2
Short Time Exposure (STE) prediction versus in vivo (cultured epithelium): false negatives
